One test is filed under the species Homo sapiens. The test can be described thus: Selectivity ratio of IC50 for human Fc-conjugated TNF-R/FLAG-tagged biotinylated TNFalpha protein-protein interaction to IC50 for human Fc-conjugated CD40/FLAG-tagged biotinylated CD40L costimulatory protein-protein interaction. Summed up:
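Cell-free plate binding: TNF-R-Fc and CD40-Fc each coated at 0.3 µg/mL. FLAG-tagged TNF-α or CD40L, each at 0.02 µg/mL, added with graded compound for 1 h in HEPES buffer, pH 7.2. Anti-FLAG HRP/TMB detection at 450 nm. IC50s come from log inhibitor fits.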

The chains behind the UniProt entries cited, without tags or fusion partners. Where a name states a change or a piece, a line headed by the entry shows the natural chain unless it says otherwise.
UniProt P25942, whole entry, looked up: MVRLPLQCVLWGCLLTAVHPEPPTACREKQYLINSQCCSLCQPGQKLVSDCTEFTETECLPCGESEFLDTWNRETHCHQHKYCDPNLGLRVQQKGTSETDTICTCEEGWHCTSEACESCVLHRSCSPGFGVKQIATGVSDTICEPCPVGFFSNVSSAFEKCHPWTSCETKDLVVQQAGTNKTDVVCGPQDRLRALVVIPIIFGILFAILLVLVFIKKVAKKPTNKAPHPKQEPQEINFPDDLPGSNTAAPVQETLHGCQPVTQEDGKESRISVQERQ
UniProt P29965: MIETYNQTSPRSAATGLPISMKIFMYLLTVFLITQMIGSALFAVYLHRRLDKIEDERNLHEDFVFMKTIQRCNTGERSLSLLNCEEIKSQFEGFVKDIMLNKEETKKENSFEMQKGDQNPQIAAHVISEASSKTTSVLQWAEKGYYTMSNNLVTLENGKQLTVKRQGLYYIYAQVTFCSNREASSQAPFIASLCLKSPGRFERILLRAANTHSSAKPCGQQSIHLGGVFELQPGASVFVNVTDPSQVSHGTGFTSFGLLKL

Another test concerns the target CD40-CD40L (Homo sapiens, UniProt P25942+P29965). Briefly: Ratio of IC50 for human Fc-conjugated CD40/FLAG-tagged biotinylated CD40L costimulatory protein-protein interaction in presence of Triton-X 100 to IC50 for human Fc-conjugated CD40/FLAG-tagged biotinylated CD40L costimulatory protein-protein interaction in absence of Triton-X 100. The class given is protein assay. Summed up: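 CD40-Fc (0.3 µg/mL) coated, FLAG-CD40L (0.02 µg/mL) binding, 1 h, anti-FLAG HRP/TMB read at 450 nm. Run with and without the non-ionic detergent Triton X-100 at 0.01% to test for colloidal aggregation. IC50 taken from log inhibitor vs. response fits in each condition.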

Some results are limits rather than exact numbers.

`COC(=O)c1ccc(C(=O)Nc2ccc(-c3ccc(C(=O)Nc4cccc5cccc(S(=O)(=O)O)c45)cc3)cc2)cc1`: the Ratio IC50 in the test filed under Homo sapiens was above 100; at CD40-CD40L, 1.2.
On the same counts, the results for `O=C(Nc1ccc(-c2ccc(C(=O)Nc3ccc(C(=O)O)c4ccccc34)cc2)cc1)c1ccc([N+](=O)[O-])cc1` are above 100 and 1.9.
On the same counts, the results for `O=C(Nc1ccc(-c2ccc(C(=O)Nc3cccc4cccc(S(=O)(=O)O)c34)cc2)cc1)c1ccc([N+](=O)[O-])cc1` are above 100 and 8.

Values taken from ChEMBL document CHEMBL4017546, “Small-Molecule Inhibitors of the CD40-CD40L Costimulatory Protein-Protein Interaction” (J Med Chem, 2017).
